Tested on: APAP-induced acute liver failure (ALF) model
Assay: APAP-induced acute liver failure (ALF) model, sublethal (300 mg/kg APAP i.p.)
Assay type: in vivo, C57Bl/6 male mice
Method: Compound 3b was studied in a sublethal model for acetaminophen (APAP)-induced Liver Injury.
ALF was induced in C57Bl/6 male mice with a single dose of acetaminophen (300 mg/kg) by i.p. injection. […] Serum alanine aminotransferase (ALT) was measured 22 h after APAP injection (n=5 mice for each group). […] ALF was induced in C57Bl/6 male mice with a single dose of acetaminophen (300 mg/kg) by i.p. injection. […] Twenty-two hours after APAP injection serum ALT was measured (indicated in FIG. 11A), centrilobular sections of mouse livers were cut and stained with hematoxylin and eosin, and the percentage of liver necrosis was determined. The data indicates a dose-dependent reduction of ALT levels of 9% to 83% relative to APAP control, and a dose-dependent reduction of necrosis of 0% to 56% relative to APAP control.
(§1) ALF was induced in C57Bl/6 male mice with a single dose of acetaminophen (300 mg/kg) by i.p. injection. […] Alanine aminotransferase (ALT) was measured 22 h after APAP injection (n=4 or n=5 mice for each group).
ALF was induced in C57Bl/6 male mice with a single dose of acetaminophen (300 mg/kg) by i.p. injection. […] Twenty-two hours after APAP injection, serum ALT was measured (indicated in FIGS. 12A-12B), centrilobular sections of mouse livers were cut and stained with hematoxylin and eosin, and the percentage of liver necrosis was determined.
ALF was induced in C57Bl/6 male mice with a single dose of acetaminophen (300 mg/kg) by i.p. injection.
FIG. 14 depicts the effect of late treatment with Compound 3b on serum ALT in ALF model. ALF was induced in C57Bl/6 male mice with a single dose of acetaminophen (300 mg/kg) by i.p. injection. At sixteen hours after APAP injection, the animals were treated with different doses of Compound 3b (0.3, 3, 30 or 60 mg/kg). Alanine aminotransferase (ALT) was measured 22 h after APAP injection (n=4 or n=5 mice for each group).
as §1

[1] = NAC 2 × 300 mg/kg at 1 h and 3 h post APAP

CC(=O)N[C@@H](CS)C(=O)O [NAC, N-acetylcysteine, reference compound]
liver histology: necrosis (in words) (Compound 3b 2×100 or 2×300 mg/kg, NAC 2×300 mg/kg, at one and three hours after APAP, 22 h): very little if any necrosis | % ALT increase relative to increase with APAP alone Experiment 1 [1]: 19.3 ± 8.7% | % ALT increase relative to increase with APAP alone Experiment 2 [1]: 54.2 ± 17.5%

From patent US9163044B2, “Carbon monoxide releasing molecules and uses thereof” (Alfama, Inc., priority 2011, dated 2015)
